Measurements reported in PubChem BioAssay AID493244 (The Scripps Research Institute Molecular Screening Center, 2011).
The entries are a selection whose mix differs from that of the whole data set. Activity calls are given as the source filed them.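 The calls were made as follows: active = inhibition above the mean inhibition of all tested compounds plus 3 SD (cut at about 17% in these data); inactive = the rest.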

target: Troponin I, cardiac muscle (Homo sapiens) + Troponin T, cardiac muscle (Homo sapiens) + Troponin C, slow skeletal and cardiac muscles (Homo sapiens) (UniProt P19429+P45379+P63316); experiment: calcium desensitizers of cardiac thin filaments – biochemical, IANBD-TnC fluorescence, EC70 calcium, primary screen (AID 493244); conditions: IANBD-labeled cardiac RTF, Ca2+ fluorescence; at 7.15 µM; hits give high values;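 also: assay run at fixed EC70 calcium of 1.6 mM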

Structure (SMILES) | inhibition
CP(=O)(Nc1ccc(SC(F)(F)F)cc1)Oc1ccccc1 (stereo unspecified) | inactive: 5.24%
COc1ccccc1OP(C)(=O)Nc1c(C)cccc1C (stereo unspecified) | inactive: 5.81%
CN1CCCCC1COC(=O)C1(O)c2ccccc2CCc2ccccc21 (stereo unspecified) | inactive: 1.99%
CC1=C2N=C(C=C3N=C(C(C)=C4[N-][C@@](C)([C@@H]5N=C1[C@](C)(CCC(=O)NC[C@@H](C)OP(=O)([O-])O[C@H]1[C@@H](O)[C@@H](n6cnc7cc(C)c(C)cc76)O[C@@H]1CO)[C@H]5CC(N)=O)[C@@](C)(CC(N)=O)[C@@H]4CCC(N)=O)[C@@](C)(CC(N)=O)[C@@H]3CCC(N)=O)C(C)(C)[C@@H]2CCC(N)=O.[C-]#N.[Co+3] | inactive: 1.19%
O=[N+]([O-])c1cc([N+](=O)[O-])c(Nc2nnnn2CCO)c([N+](=O)[O-])c1 | inactive: -7.29%
CCOC(=O)C(CC)C1=NC(C)(C)Cc2ccccc21.O=[N+]([O-])c1cc([N+](=O)[O-])c(O)c([N+](=O)[O-])c1 (stereo unspecified) | inactive: 5.24%
Cc1nc2ccc3ccccc3c2s1.O=[N+]([O-])c1cc([N+](=O)[O-])c(O)c([N+](=O)[O-])c1 | inactive: -10.3%
O=[N+]([O-])c1cc([N+](=O)[O-])c(-c2cnn(-c3ccccc3)c2)c([N+](=O)[O-])c1 | inactive: 6.37%
O=[N+]([O-])c1cc([N+](=O)[O-])c(-n2nnc3ccccc32)c([N+](=O)[O-])c1 | inactive: -4.53%
CP(=O)(Nc1ccccn1)Oc1ccc(Cl)cc1 (stereo unspecified) | inactive: 2.11%
CCOP(C)(=S)SCC(=O)NC(C)C(=O)O (stereo unspecified) | inactive: -2.77%
CCOC(=O)c1ccc(NP(C)(=O)Oc2ccc(OC)cc2)cc1 (stereo unspecified) | inactive: -7.98%
CP(=O)(NC(=O)Nc1ccccc1)Oc1ccccc1 (stereo unspecified) | inactive: 5.89%
CCc1ccc(OP(C)(=O)N2CCN(c3ccc([N+](=O)[O-])cc3)CC2)cc1 (stereo unspecified) | inactive: 2.36%
Cc1cc(C)cc(OP(C)(=O)Nc2ccc(SC(F)(F)F)cc2)c1 (stereo unspecified) | inactive: -9.56%
Cc1cccc(C)c1OP(C)(=O)Nc1ccc(SC(F)(F)F)cc1 (stereo unspecified) | inactive: 7.75%

Structure (SMILES) | inhibition
CP(=O)(Oc1ccccc1)OC(c1ccccc1)C(F)(F)F (stereo unspecified) | inactive: -10.6%
COc1ccccc1OP(C)(=O)Nc1ccccc1 (stereo unspecified) | inactive: -1.94%
CP(=O)(Nc1ccccc1Br)Oc1ccccc1 (stereo unspecified) | inactive: 2.09%
CP(=S)(Nn1cnnc1)Oc1ccccc1 (stereo unspecified) | inactive: -1.39%
COc1ccccc1OP(C)(=O)Nc1cc(Cl)ccc1C (stereo unspecified) | inactive: -11%
COc1ccc(OP(C)(=O)Nc2cccc(F)c2)cc1 (stereo unspecified) | inactive: 2.57%
Cc1cc(C)cc(OP(C)(N)=O)c1 (stereo unspecified) | inactive: 1.2%
CCOC(=O)c1ccc(NP(C)(=O)Oc2ccccc2)cc1 (stereo unspecified) | inactive: 1.94%
COc1ccccc1OP(C)(=O)Nc1ccc(C)cc1 (stereo unspecified) | inactive: -5.16%
Cc1ccc(NP(C)(=O)Oc2ccccc2)c(C)c1 (stereo unspecified) | inactive: -1.37%
CC(C)(C)c1ccc(OP(C)(=O)Nc2ccc(SC(F)(F)F)cc2)cc1 (stereo unspecified) | inactive: 0.5%
Cc1cccc(C)c1OP(C)(N)=O (stereo unspecified) | inactive: 6.54%
O=[N+]([O-])c1ccc2c(c1)C=Nc1ccccc1O2 | inactive: 3.11%
O=[N+]([O-])c1cc([N+](=O)[O-])c(Nc2cccnc2)c([N+](=O)[O-])c1 | inactive: -14.2%
CCN(CC)CCCOC(=O)C(O)(c1ccccc1)c1ccccc1 | inactive: 0.89%
